Species on record: Homo sapiens
Test: Selectivity ratio of Ki for human CB2 receptor to Ki for human CB1 receptor

SMILES: O=C(OCC1CCC1)N1CCN(c2ncnc3c2nc(-c2ccccc2Cl)n3-c2ccc(Cl)cc2)CC1
- Ratio Ki: 1500

Reference: ChEMBL document CHEMBL4229498 (Bioorg Med Chem, 2018)
